Test results: PMC10951269 (2024)
Like-named read-outs stand apart in the source and are kept apart here.

Tests used:
hSERT mutant I172M [1] = conditions: fluorescence assay; 10 µM 5-HT; N = 3
hSERT mutant I172M [2] = conditions: radiotracer assay; 10 µM [3H]5-HT; N = 3
hSERT I172M = conditions: cited from earlier work

Fc1ccc([C@@H]2CCNC[C@H]2COc2ccc3c(c2)OCO3)cc1 [paroxetine]
fold decrease in potency, hSERT I172M compared to wild type (IC50 ratio) (hSERT mutant I172M [1]): 1.6 fold | fold decrease in potency, hSERT I172M compared to wild type (IC50 ratio) (hSERT mutant I172M [2]): 2.6 fold | fold decrease in potency, hSERT I172M compared to wild type (hSERT I172M; ref Davis et al. 36): 2.3 fold | fold decrease in potency, hSERT I172M compared to wild type (hSERT I172M; ref Henry et al. 34): 2.1 fold
